1 compound from ChEMBL document CHEMBL5696444 (Nat Commun, 2017) can be followed below.

By UniProt entry, the sequences of proteins in these tests, tags left out. Where a name states a change or a piece, a line headed by the entry shows the natural chain unless it says otherwise.
UniProt P49761: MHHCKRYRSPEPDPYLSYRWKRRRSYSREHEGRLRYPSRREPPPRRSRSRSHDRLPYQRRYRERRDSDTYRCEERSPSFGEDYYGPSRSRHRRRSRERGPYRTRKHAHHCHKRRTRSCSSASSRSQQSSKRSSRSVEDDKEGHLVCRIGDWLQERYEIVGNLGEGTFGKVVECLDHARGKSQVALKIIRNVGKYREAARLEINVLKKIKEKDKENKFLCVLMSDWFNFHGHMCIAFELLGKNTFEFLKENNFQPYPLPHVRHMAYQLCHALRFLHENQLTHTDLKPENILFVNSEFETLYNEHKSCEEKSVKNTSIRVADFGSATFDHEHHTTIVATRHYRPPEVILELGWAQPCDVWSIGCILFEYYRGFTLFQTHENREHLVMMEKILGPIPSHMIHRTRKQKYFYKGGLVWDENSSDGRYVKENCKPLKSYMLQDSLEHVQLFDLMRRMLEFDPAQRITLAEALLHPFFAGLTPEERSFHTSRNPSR

This experiment addresses Dual specificity protein kinase CLK3 (Homo sapiens, UniProt P49761). The experiment is described as follows: Inhibition of CLK3 (unknown origin) using ULight-CREBtide peptide as substrate incubated for 10 mins in presence of ATP incubated for 45 mins by LANCE Ultra kinase assay. The essentials: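 Recombinant CLK3 at 300 ng ml−1 in HEPES buffer (pH 7.5) with magnesium acetate, DTT, BSA and Tween-20, using ULight-CREBtide as substrate. After a 10 min preincubation with compound, ATP was added for 45 min. The reaction was stopped with 10 mM EDTA, and signal was read by TR-FRET with a Eu-anti-phospho-CREB (Ser113) antibody.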

Regarding `CCOC(=O)c1c(/C(C#N)=C\N)c2ccc(Cl)c(Cl)c2n1C`, the IC50 was more than 1 µM.
